Measurements taken from patent publication US7893077B2, “Bisaryl-sulfonamides” (Amgen Inc., priority 2004, dated 2011).

Amino acid sequences for entries named in this document (tags omitted).
UniProt P37231, whole entry: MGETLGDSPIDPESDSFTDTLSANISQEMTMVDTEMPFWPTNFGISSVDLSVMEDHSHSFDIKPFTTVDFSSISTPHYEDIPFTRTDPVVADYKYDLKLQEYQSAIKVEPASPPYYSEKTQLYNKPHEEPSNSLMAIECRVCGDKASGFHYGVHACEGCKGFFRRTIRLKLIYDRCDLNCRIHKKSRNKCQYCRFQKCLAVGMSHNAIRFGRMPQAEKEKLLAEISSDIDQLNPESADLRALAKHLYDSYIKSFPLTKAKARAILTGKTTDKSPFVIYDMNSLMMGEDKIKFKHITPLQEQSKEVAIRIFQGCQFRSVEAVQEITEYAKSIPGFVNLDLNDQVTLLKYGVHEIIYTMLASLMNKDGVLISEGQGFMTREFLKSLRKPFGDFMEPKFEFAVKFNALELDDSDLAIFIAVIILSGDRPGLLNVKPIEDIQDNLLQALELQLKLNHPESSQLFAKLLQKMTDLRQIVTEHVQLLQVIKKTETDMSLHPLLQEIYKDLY

Target: PPARγ (Homo sapiens, UniProt P37231)
Assay: PPARγ ligand binding assay utilizing [3H]-BRL 49653 as the radioligand (filtration)
Conditions: read-out: PPARγ Binding IC50 Filtration; concentration required to reduce by 50% the specific binding of [3H]-BRL 49653
Excerpt: The compounds of the present invention can be evaluated for modulation of the PPARγ receptor using assays such as those described in Jiang, et al., Nature 391:82-86 (1998), Ricote, et al., Nature 391:79-82 (1998) and Lehmann, et al., J. Biol. Chem. 270(12): 12953-12956 (1995). Alternatively, the compounds can be evaluated for their ability to displace radiolabeled BRL 49653 from a PPARγ-GST fusion protein as follows:
PPARγ-GST fusion protein (prepared according to standard procedures), [^3H]-BRL 49653 having 50 Ci/mmol specific activity, Polyfiltronics Unifilter 350 filtration plate and glutathione-Sepharose® beads (from Pharmacia: washed twice with 10× binding buffer in which BSA and DTI can be left out).
Binding buffer (10 mM Tris-HCl, pH 8.0, 50 mM KCl, 10 mM DTT, 0.02% BSA and 0.0 1% NP-40) is added in 80-μL amounts to the wells of the filtration plate. The test compound is then added in 10 μL of DMSO. The PPARγ-GST fusion protein and radiolabeled BRL compound are premixed in binding buffer containing 10 mM DTT and added in 10-μL amounts to the wells of the plate to provide final concentrations of 1 µg/well of PPARγ-GST fusion protein and 10 nM [^3H]-BRL 49653 compound. The plate is incubated for 15 min. Glutathione-agarose bead is added in 50 μL of binding buffer, and the plate is vigorously shaken for one hour. The plate is washed four times with 200 μL/well of binding buffer (without BSA and DTT). The bottom of the plate is sealed and 200 μL/well of scintillation cocktail is added. The top of the plate is then sealed and the radioactivity is determined.
IC50 values are defined as the concentration of test compounds required to reduce by 50% the specific binding of [^3H]-BRL 49653 and are represented by (+)<30 μM; (++)<10 μM; (+++)<1 μM.

Structure (SMILES) | IC50
Cc1cc(Oc2ccc(NS(=O)(=O)c3ccc(C(F)(F)F)cc3Cl)cc2C(=O)NCC(C)C)ccc1S(=O)(=O)N1CCCCC1 | < 1 µM
O=S(=O)(Nc1cc(Cl)c([S+]([O-])c2ccc(S(=O)(=O)N3CCCCC3)cc2)c(Cl)c1)c1ccc(C(F)(F)F)cc1Cl (stereo not drawn) | < 1 µM
CC(=O)c1cc(NS(=O)(=O)c2ccc(F)cc2C(F)(F)F)cc(Cl)c1Oc1ccc(S(=O)(=O)N2CCOCC2)cc1 | < 10 µM
CC(=O)c1cc(NS(=O)(=O)c2ccc(F)cc2F)cc(Cl)c1Oc1ccc(S(=O)(=O)N2CCOCC2)cc1 | < 10 µM
CCNC(=O)c1cc(NS(=O)(=O)c2ccc(OC(F)(F)F)cc2)ccc1Oc1ccc(S(=O)(=O)N2CCCC2)c(C)c1 | < 10 µM
CCN(CC)S(=O)(=O)c1ccc(Oc2ccc(NS(=O)(=O)c3ccc(C(F)(F)F)cc3Cl)cc2CO)cc1 | < 10 µM
CCN(CC)S(=O)(=O)c1ccc(Oc2c(C)cc(NS(=O)(=O)c3ccc(C(F)(F)F)cc3Cl)cc2C(C)=O)cc1C | < 1 µM
Cc1cc(S(=O)(=O)Nc2ccc(Oc3ccc(S(=O)(=O)N4CCOCC4)cc3)c(C(=O)OC(C)C)c2)c(Cl)cc1Cl | < 1 µM
CC(=O)c1cc(NS(=O)(=O)c2ccc(F)cc2Cl)cc(Cl)c1Oc1ccc(S(=O)(=O)N2CCOCC2)cc1 | < 1 µM
CC(=O)c1cc(NS(=O)(=O)c2ccc(F)c(F)c2)cc(Cl)c1Oc1ccc(S(=O)(=O)N2CCOCC2)cc1 | < 10 µM
Cc1nc(-c2cc(NS(=O)(=O)c3ccc(Cl)cc3Cl)ccc2Oc2ccc(S(=O)(=O)N3CCOCC3)cc2)cs1 | < 1 µM
CC(=O)c1cc(NS(=O)(=O)c2ccc(C(F)(F)F)cc2Cl)cc(Cl)c1Oc1ccc(S(=O)(=O)N2CCCC2)c(C)c1 | < 1 µM
CC(=O)c1cc(NS(=O)(=O)c2ccccc2C(F)(F)F)cc(Cl)c1Oc1ccc(S(=O)(=O)N2CCOCC2)cc1 | < 10 µM
C/C=C/C(=O)c1cc(NS(=O)(=O)c2ccc(Cl)cc2Cl)ccc1Oc1ccc(S(=O)(=O)N2CCCCC2)c(C)c1 | < 1 µM
Cc1cc(Oc2ccc(NS(=O)(=O)c3ccc(OC(F)(F)F)cc3)cc2C(=O)N(C)C(C)C)ccc1S(=O)(=O)N1CCCCC1 | < 10 µM
CCc1cc(S(=O)(=O)N(CC)CC)ccc1Oc1c(Cl)cc(NS(=O)(=O)c2ccc(Cl)cc2Cl)cc1Cl | < 1 µM
O=S1(=O)CCN(S(=O)(=O)c2ccc(Oc3c(Cl)cc(NS(=O)(=O)c4ccc(C(F)(F)F)cc4Cl)cc3Cl)cc2)CC1 | < 1 µM
CCN(CCNC)S(=O)(=O)c1ccc(Sc2c(Cl)cc(NS(=O)(=O)c3ccc(C(F)(F)F)cc3Cl)cc2Cl)cc1 | < 1 µM
CCN(CC)S(=O)(=O)c1ccc(Oc2ccc(NS(=O)(=O)c3cc(F)cc(Cl)c3C)cc2C)cc1 | < 10 µM
CC(=O)c1cc(NS(=O)(=O)c2ccc(C(C)C)cc2)cc(Cl)c1Oc1ccc(S(=O)(=O)N2CCOCC2)cc1 | < 10 µM
O=S(=O)(Nc1cc(Cl)c(Oc2ccc(S(=O)(=O)N3CCOCC3)cc2)c(Cl)c1)c1ccc(Cl)cc1Cl | < 1 µM
O=S(=O)(Nc1cc(Cl)c(Oc2ccc(S(=O)(=O)C3CCCCC3)cc2)c(Cl)c1)c1ccc(C(F)(F)F)cc1Cl | < 1 µM
CON(C)C(=O)c1cc(NS(=O)(=O)c2ccc(C(F)(F)F)cc2Cl)ccc1Oc1ccc(S(=O)(=O)N2CCCCC2)cc1 | < 10 µM
CC(=O)c1cc(NS(=O)(=O)c2cc(Cl)c(Cl)cc2Cl)cc(Cl)c1Oc1ccc(S(=O)(=O)N2CCOCC2)cc1 | < 1 µM

Continued, values first:

IC50 | Structure (SMILES)
< 10 µM | CC(=O)c1cc(NS(=O)(=O)c2ccc(F)cc2)cc(Cl)c1Oc1ccc(S(=O)(=O)N2CCOCC2)cc1
< 10 µM | CN(C)C(=O)c1cc(NS(=O)(=O)c2ccc(C(F)(F)F)cc2Cl)cc(Cl)c1Oc1ccc(S(=O)(=O)N2CCOCC2)cc1
< 10 µM | CC(=O)c1cc(NS(=O)(=O)c2cccc(C)c2)cc(Cl)c1Oc1ccc(S(=O)(=O)N2CCOCC2)cc1
< 1 µM | CC(=O)c1cc(NS(=O)(=O)c2ccc(Cl)cc2Cl)ccc1Oc1ccc(S(=O)(=O)N2CCCCC2)c(C)c1
< 1 µM | COc1ccc(Cl)cc1S(=O)(=O)Nc1cc(Cl)c(Oc2ccc(S(=O)(=O)N3CCOCC3)cc2)c(C(C)=O)c1
< 10 µM | Cc1cc(Oc2ccc(NS(=O)(=O)c3ccc(OC(F)(F)F)cc3Cl)cc2C(=O)NC(C)C)ccc1S(=O)(=O)N1CCCC1
< 1 µM | CCN(CC)S(=O)(=O)c1ccc(Sc2c(Cl)cc(NS(=O)(=O)c3ccc(C(F)(F)F)cc3Cl)cc2Cl)cc1
< 10 µM | CC(=O)c1cc(NS(=O)(=O)c2c(C)cccc2Cl)cc(Cl)c1Oc1ccc(S(=O)(=O)N2CCOCC2)cc1
< 1 µM | CC(=O)c1cc(NS(=O)(=O)c2cc(C)c(Cl)cc2Cl)ccc1Oc1ccc(S(=O)(=O)N2CCCCC2)cc1
< 1 µM | CCN(CC)S(=O)(=O)c1ccc(Oc2c(Cl)cc(NS(=O)(=O)c3ccc(OC(F)(F)F)cc3)cc2Cl)cc1
< 1 µM | CCCCC(=O)c1cc(NS(=O)(=O)c2cc(C)c(Cl)cc2Cl)ccc1Oc1ccc(S(=O)(=O)N2CCCCC2)cc1
< 10 µM | CC(=O)c1cc(NS(=O)(=O)c2cccc3ccccc23)cc(Cl)c1Oc1ccc(S(=O)(=O)N2CCOCC2)cc1
< 1 µM | CC(=O)c1cc(NS(=O)(=O)c2cc(F)c(F)cc2F)cc(Cl)c1Oc1ccc(S(=O)(=O)N2CCOCC2)cc1
< 1 µM | Cc1cc(S(=O)(=O)Nc2ccc(Oc3ccc(S(=O)(=O)N4CCCC4)c(C)c3)c(C(=O)NC(C)C)c2)c(Cl)cc1Cl
< 1 µM | O=S(=O)(Nc1cc(Cl)c(Oc2ccc(S(=O)(=O)N3CC[S+]([O-])CC3)cc2)c(Cl)c1)c1ccc(C(F)(F)F)cc1Cl
< 10 µM | CCc1ccc(S(=O)(=O)Nc2cc(Cl)c(Oc3ccc(S(=O)(=O)N4CCOCC4)cc3)c(C(C)=O)c2)cc1
< 10 µM | Cc1cc(S(=O)(=O)Nc2ccc(Sc3ccccc3)nn2)c(Cl)cc1Cl
< 1 µM | CC(=O)c1cc(NS(=O)(=O)c2ccc(Cl)cc2)cc(Cl)c1Oc1ccc(S(=O)(=O)N2CCOCC2)cc1
< 1 µM | CCOC(=O)CCCS(=O)(=O)c1ccc(Sc2c(Cl)cc(NS(=O)(=O)c3ccc(C(F)(F)F)cc3Cl)cc2Cl)cc1
< 1 µM | CC(=O)c1cc(NS(=O)(=O)c2ccc(C(F)(F)F)cc2Cl)ccc1Oc1ccc(S(=O)(=O)N2CCOCC2)cc1
< 1 µM | CCCC(=O)c1cc(NS(=O)(=O)c2ccc(Cl)cc2Cl)ccc1Oc1ccc(S(=O)(=O)C2CCCC2)cc1
< 10 µM | CC(=O)c1cc(NS(=O)(=O)c2cc(F)ccc2F)cc(Cl)c1Oc1ccc(S(=O)(=O)N2CCOCC2)cc1
< 1 µM | CC(=O)c1ccc(S(=O)(=O)Nc2cc(Cl)c(Oc3ccc(S(=O)(=O)N4CCOCC4)cc3)c(C(C)=O)c2)cc1
< 1 µM | CC(=O)c1cc(NS(=O)(=O)c2cc(C)c(Cl)cc2Cl)cc(Cl)c1Oc1ccc(S(=O)(=O)N2CCCC2)c(C)c1
< 10 µM | CC(=O)c1cc(NS(=O)(=O)c2ccccc2C#N)cc(Cl)c1Oc1ccc(S(=O)(=O)N2CCOCC2)cc1
< 1 µM | CC(=O)c1cc(NS(=O)(=O)c2cc(C)c(Cl)cc2Cl)ccc1Oc1ccc(S(=O)(=O)N2CCCCC2)c(C)c1
< 10 µM | CCN(CC)S(=O)(=O)c1ccc(Oc2c(C)cc(NS(=O)(=O)c3ccc(C(F)(F)F)cc3Cl)cc2Cl)cc1
< 1 µM | O=S(=O)(Nc1cc(Cl)c(Oc2ccc(S(=O)(=O)C3CCOCC3)cc2)c(Cl)c1)c1ccc(C(F)(F)F)cc1Cl
< 1 µM | O=S(=O)(Nc1cc(Cl)c(Oc2ccc(S(=O)(=O)N3CC[C@@H](O)C3)cc2)c(Cl)c1)c1ccc(C(F)(F)F)cc1Cl
< 1 µM | CC(=O)c1cc(NS(=O)(=O)c2ccc(C(F)(F)F)cc2)cc(Cl)c1Oc1ccc(S(=O)(=O)N2CCOCC2)cc1
